# Test results as given in patent publication US5214030A, “Calcitonin gene-related peptides for treating erectile dysfunctions” (priority 1989, dated 1993).
# System: Cynomolgus monkeys
# Assay: intracavernous injection in Cynomolgus monkeys under ketamine anaesthesia (tumescence, intracavernal pressure, cavernal artery flow, blood pressure)
# Assay type: in vivo, Cynomolgus monkey
# Design: key to maximum tumescence and elongation (class): E 0=no tumescence; E 1=slight tumescence; E 2 =partial tumescence; E 3=complete tumescence
# Details: for intracavernous pressure (average): 500 ng
# Experimental: The necessary in vivo experiments were carried out on seven Cynomolgus monkeys with a body weight of from 4.3 to 8.3 kg under ketamine anaesthesia (30 mg/kg intramuscular). The monkeys were placed in the dorsal position. Under sterile conditions, a 21-G butterfly cannula was placed bilaterally into the distal erectile tissue. For the recordal of the intracavernal pressure, a needle was connected with a Statham pressure converter (model P23 BC) and the other used for the intracavernous injection or perfusion. The penile tumescence was monitored visually by two observers and recorded. A classification of the tumescence took place according to the parameters: E 0=no tumescence; E 1=slight tumescence; E 2 =partial tumescence; E 3=complete tumescence. A flowthrough measurement of the cavernal arteries was carried out by means of ultrasonics on four monkeys. The pulse and blood pressure were measured by means of Doppler measurement (Parks Medical Electronics) on the radial artery with the help of a paediatric blood pressure cuff.
# In a pilot study, 50, 500 and 2500 ng h-CGRP (Sigma Chemical Co., St. Louis, Mo.) were injected intracavernously into two monkeys. […] Therefore, the further investigations were carried out with dosages of 500 ng and, for ensuring the reproducability, repeated on a second day.
substance,measurement,setting,value
"h-CGRP: human calcitonin gene-related peptide of formula (I), obtained from Sigma Chemical Co.",time after injection at which arterial flow could no longer be ascertained (average),500 ng intracavernously,49 min
same,time after injection up to which maximum tumescence lasted,500 ng intracavernously,up to 15 minutes
same,time for intracavernous pressure to decrease to the initial value,500 ng intracavernously,≤ 36 min
same,time of maximum flow rate of the cavernous artery after injection (average),500 ng intracavernously,4 min
same,time to maximum tumescence after injection,500 ng intracavernously,4 min
same,time until no difference between tumescence before and after injection (average),500 ng intracavernously,32 min
same,arterial flow after intracavernous injection,"500 ng intracavernously, flow not measurable before injection",an increase of the arterial flow was observed
same,maximum tumescence and elongation (class),"500 ng intracavernously, from 4 minutes up to 15 minutes after injection",E 3
same,intracavernous pressure (average),"90 to 120 seconds after the injection, before injection average 34",78 cm H2 O
same,intracavernous pressure (average),"after 4 minutes, decreased within 1 minute",47 cm H2 O
same,penile tumescence,"pilot study, 50 ng intracavernously, two monkeys","only a slight, brief tumescence"
same,systemic blood pressure,"pilot study, 2500 ng intracavernously",below 35 cm H2 O
